Test results taken from paper PMC12715762, “Discovery of VU6052254: A Novel, Potent M1 Positive Allosteric Modulator” (ACS Chemical Neuroscience, 2025).

What was measured:
[1] = test system: C57Bl/6 mice; details: mouse, in vivo; cited from earlier work
[2] = test system: mice; details: mouse, in vivo

- SLUDGE effects in modified Irwin battery [2]: significant SLUDGE
Substance: BQCA
- Racine scale seizures [1]: 4/5
